Laboratory results from patent US20220397564A1, “ENGINEERING SPATIAL-ORGANIZED CARDIAC ORGANOIDS FOR DEVELOPMENTAL TOXICITY TESTING” (priority 2021, published 2022).

System: hiPSC-based cardiac organoids
Assay: cardiac developmental toxicity assay on hiPSC-derived cardiac organoids (differentiation, contractile behavior, 3D morphology)

O=C([O-])[O-].[Li+].[Li+] [Lithium Carbonate]
developmental toxicity on cardiac organoids (overall) (600 μm organoids, continuous exposure from Day 1, read Day 20, overall over tested concentrations): mild developmental toxicity
area ratio (high / higher concentrations): moderate toxicity
